From US12121505B2, “Fap-activated therapeutic agents, and uses related thereto” (BACH BIOSCIENCES, LLC, priority 2014, dated 2024)

How the values were obtained:
FAP = molecular target: T1, FAP (Homo sapiens, UniProt Q12884); experiment: Rate of recombinant FAP activity on doxorubicin prodrugs; conditions: 37° C., 24 hours
T1 sequence (Q12884 1-760): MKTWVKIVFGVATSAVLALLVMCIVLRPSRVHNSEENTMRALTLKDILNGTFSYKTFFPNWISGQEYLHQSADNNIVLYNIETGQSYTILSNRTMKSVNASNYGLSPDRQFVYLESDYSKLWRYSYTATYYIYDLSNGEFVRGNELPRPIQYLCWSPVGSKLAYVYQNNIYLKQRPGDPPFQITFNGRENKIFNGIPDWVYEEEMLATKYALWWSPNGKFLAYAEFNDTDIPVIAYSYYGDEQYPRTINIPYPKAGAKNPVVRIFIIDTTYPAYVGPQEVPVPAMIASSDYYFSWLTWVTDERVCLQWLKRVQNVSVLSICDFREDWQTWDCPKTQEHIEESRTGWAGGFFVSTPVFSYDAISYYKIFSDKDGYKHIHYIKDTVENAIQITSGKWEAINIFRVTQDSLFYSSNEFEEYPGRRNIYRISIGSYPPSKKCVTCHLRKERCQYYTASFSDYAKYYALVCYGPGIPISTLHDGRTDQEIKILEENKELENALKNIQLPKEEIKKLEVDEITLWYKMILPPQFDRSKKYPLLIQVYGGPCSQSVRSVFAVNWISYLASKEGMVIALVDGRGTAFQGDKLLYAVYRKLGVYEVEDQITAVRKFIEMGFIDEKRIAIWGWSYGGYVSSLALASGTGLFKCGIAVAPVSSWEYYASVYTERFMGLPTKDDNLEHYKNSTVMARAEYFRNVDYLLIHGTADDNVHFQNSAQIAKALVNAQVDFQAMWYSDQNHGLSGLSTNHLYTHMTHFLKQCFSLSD

Row | SMILES | rate of yielding free doxorubicin (FAP) | survival (HEK-FAP tumor; 6, 9 or 12 mg/kg once per week iv) | mean number of days to reach 500 mm^3 tumor size (HEK-FAP tumor; Group 2, 2 mg/kg once per week iv)
1 | COc1cccc2c1C(=O)c1c(O)c3c(c(O)c1C2=O)C[C@@](O)(C(=O)CO)C[C@@H]3O[C@H]1C[C@H](NC(=O)[C@@H]2CCCN2C(=O)[C@@H](C)NC(=O)c2ccncc2)[C@H](O)[C@H](C)O1 [Compound 3099DOX] | significantly faster than either z-GP-DOX or 3996DOX | significantly longer survival than animals treated with either vehicle alone or doxorubicin | –
2 | COc1cccc2c1C(=O)c1c(O)c3c(c(O)c1C2=O)C[C@@](O)(C(=O)CO)C[C@@H]3O[C@H]1C[C@H](N)[C@H](O)[C@H](C)O1 [doxorubicin, reference compound] | – | – | 41 to 43 days
